Measurements from PubChem BioAssay AID485317 (Broad Institute, 2010).
The entries are a selection whose mix differs from that of the whole data set. Some results for these compounds are left out of this collection, so the calls shown say nothing about other tests. The source made the active and inactive calls.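 How the source made its calls: active means mean replicate inhibition above about 79%, with every replicate also reaching it (limit read from the data); inconclusive means only one of the two criteria met; inactive means mean below limit and not every replicate reaching it.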

The chains behind the UniProt entries cited, without tags or fusion partners.
UniProt P55789, whole entry: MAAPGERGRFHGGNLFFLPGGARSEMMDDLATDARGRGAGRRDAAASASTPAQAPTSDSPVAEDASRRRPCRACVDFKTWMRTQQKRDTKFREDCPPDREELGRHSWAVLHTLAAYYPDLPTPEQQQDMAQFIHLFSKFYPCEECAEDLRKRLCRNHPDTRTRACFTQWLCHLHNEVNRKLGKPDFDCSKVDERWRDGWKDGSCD

Biological target: FAD-linked sulfhydryl oxidase ALR (Homo sapiens) (UniProt P55789)
Experiment: inhibitors of human ALR sulfhydryl oxidase, primary screen, biochemical, H2O2 detection, HRP-luminol luminescence, single point (AID 485317)
Conditions: purified ALR, DTT oxidation, stronger effect = higher value, concentration not given here

| Compound | inhibition |
| --- | --- |
| COc1cccc(C(=O)NCC2(N3CCCCC3)CCCCC2)c1 | inactive: 2.92% |
| COc1ccc(Cl)cc1C(=O)NCC1(N(C)C)CCCCC1 | inactive: -20.7% |
| O=C(NCC1(N2CCCCC2)CCCCC1)c1cccc(Cl)c1 | inactive: 4.53% |
| COc1cc(C(=O)NCC2(N(C)C)CCCCC2)c([N+](=O)[O-])cc1OC | inactive: -11.8% |
| COc1ccc(Br)c(C(=O)NCC2(N3CCCCC3)CCCCC2)c1 | inactive: -5.51% |
| CC(C)Oc1ccc(C(=O)NCC2(N(C)C)CCCCC2)cc1 | inactive: -3.31% |
| CN(C)c1cccc(C(=O)NCC2(N(C)C)CCCCC2)c1 | inactive: -4.9% |
| COc1cc(SC)ccc1C(=O)NCC1(N(C)C)CCCCC1 | inactive: -2.56% |
| CC(C)N1C(=O)CC2(CCN(CCOC(=O)C(O)(c3ccccc3)c3ccccc3)CC2)C1=O | inactive: -5.59% |
| Cc1ccc(C(=O)NCC2(N3CCCCC3)CCCCC2)cc1 | inactive: 0.012% |
| O=C(NCC1(N2CCCCC2)CCCCC1)c1cc([N+](=O)[O-])ccc1Cl | inactive: -18.1% |
| CN1[C@@H]2CC[C@H]1CC(OC(=O)C(O)(c1ccccc1)c1ccccc1)C2 (stereo not given in full) | inactive: -1.64% |
| C=CCN1CCN(CCOC(=O)C(O)(c2ccccc2)c2ccccc2)CC1 | inactive: -30.3% |
| COc1ccc(C(=O)NCC2(N(C)C)CCCCC2)cc1 | inactive: -1.67% |
| Cc1cc(C(=O)NCC2(N3CCCCC3)CCCCC2)ccc1[N+](=O)[O-] | inactive: 4.16% |
| CCN1CCCC(OC(=O)C2(O)c3ccccc3C=Cc3ccccc32)C1 (stereo not given) | inactive: -0.133% |
| O=C(NCC1(N2CCCCC2)CCCCC1)c1cccc(Br)c1 | inactive: -2.52% |
| Cc1ccccc1C(=O)NCC1(N2CCCCC2)CCCCC1 | inactive: -49.9% |
| CN(C)C1CCCC1OC(=O)C(O)(c1ccccc1)c1ccccc1 (stereo not given) | inactive: -2.34% |
| CN(C)c1ccc(C(=O)NCC2(N(C)C)CCCCC2)cc1 | inactive: 71.4% |
